According to PubChem BioAssay AID488841 (Sanford-Burnham Center for Chemical Genomics, 2010):
The entries are a selection whose mix differs from that of the whole data set. The source made the active and inactive calls.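 The calls were made as follows: active = mean inhibition above 50% across duplicate retests at 10 µM; inactive = the rest.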

Assay: yeast NALP1 reporter signal suppression – S. cerevisiae, luminescence, single concentration, NALP1 inhibitor project, confirmation (AID 488841);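 also: plate controls were DMSO in galactose medium for no effect and cells in plain SD medium for full effect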
Settings: S. cerevisiae NALP1/ASC/Caspase-1 reporter, beta-gal luminescence; at 10 µM; stronger effect = higher value

Structure (SMILES)	inhibition
CC(=O)NC(SC(=S)N(C)C)C(Cl)(Cl)Cl (stereo not drawn)	inactive: 44.3%
O=[N+]([O-])c1cc([N+](=O)[O-])c(-c2ccn[nH]2)s1	inactive: 47.1%
O=C(OC1CN2CCC1CC2)C12CC3CC(CC(C3)C1)C2 (stereo not drawn)	inactive: 30.7%
